Measurements taken from patent US20240189458A1, “METHODS FOR IN VIVO DELIVERY OF MICROBES TO HUMAN MICROENVIRONMENTS” (priority 2021, published 2024).

Protein sequences, listed by entry. Tags and fused reporters are not part of them. Lines headed by an entry give the natural chain unless they say otherwise; changes in a name come on top.
UniProt P0DM80: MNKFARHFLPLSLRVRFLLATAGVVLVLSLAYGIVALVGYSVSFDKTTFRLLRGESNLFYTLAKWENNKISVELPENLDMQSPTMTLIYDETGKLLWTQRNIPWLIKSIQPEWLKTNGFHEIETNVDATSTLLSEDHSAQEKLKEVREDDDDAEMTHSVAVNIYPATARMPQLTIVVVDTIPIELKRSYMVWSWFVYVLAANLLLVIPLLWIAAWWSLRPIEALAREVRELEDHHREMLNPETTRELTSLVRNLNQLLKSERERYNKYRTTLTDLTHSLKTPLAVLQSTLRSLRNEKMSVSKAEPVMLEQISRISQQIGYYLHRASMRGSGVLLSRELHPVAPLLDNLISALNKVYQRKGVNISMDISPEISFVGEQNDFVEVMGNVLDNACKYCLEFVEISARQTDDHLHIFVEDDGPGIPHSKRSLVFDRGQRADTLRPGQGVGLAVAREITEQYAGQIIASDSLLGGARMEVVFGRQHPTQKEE

Columns and labels:
S. Typhimurium PhoPQ [1] = target: T1, S. Typhimurium PhoPQ (Salmonella typhimurium, UniProt P0DM80); assay: PvirK-mNG reporter of PhoPQ activity in S. Typhimurium, flow cytometry; assay type: cell-based; conditions: LL-37 added, read-out: half-maximal activation of PvirK-mNG reporter
T1 construct: expressed in transfected cells; host or cells: E. coli BW30007 (lacks E. coli phoPQ) with the cassette integrated in the genome = strain KB1
Procedure: Next, a plasmid was constructed wherein PvirK controls expression of an mNeonGreen (mNG) fluorescent reporter gene, which produces a fluorescent protein that is brighter than sfGFP. This plasmid was transformed into both S. Typhimurium and KB1 to measure PhoPQ activation by the positive control AMP LL-37. It observed that this PvirK-mNG reporter system is activated in a similar manner in both organisms (24), with half-maximal activation occurring at 2.01±0.43 and 1.16±0.10 μM LL-37, respectively. LL-37 response was also measured in two negative control strains: an S. Typhimurium strain lacking phoQ and a KB1 derivative in which the catalytic histidine of PhoQ was mutated to an alanine (KB1 PhoQ H277A).

S. Typhimurium PhoPQ [2] = target: T1, S. Typhimurium PhoPQ; assay: PvirK-mNG reporter of PhoPQ activity in engineered E. coli KB1, flow cytometry; assay type: cell-based; conditions: LL-37 added, read-out: half-maximal activation of PvirK-mNG reporter
Description: Porting S. Typhimurium PhoPQ into E. coli: To enable high-throughput screening of AMP-PhoQ interactions, an E. coli reporter strain of S. Typhimurium PhoPQ activity was engineered (24). First, a genomic integration cassette was constructed wherein S. Typhimurium phoP and phoQ are expressed from constitutive promoters and other well-characterized gene regulatory elements (24). The resulting engineered PhoPQ expression cassette was integrated into the genome of E. coli BW30007, which lacks the E. coli phoPQ ortholog, resulting in strain KB1. Next, a plasmid-based transcriptional reporter of PhoPQ activity was developed. When overexpressed, PhoP can activate target promoters independently of PhoQ. […] These plasmids were transformed into BW30007 and measured sfGFP fluorescence in response to varying levels of aTc. […]
Next, a plasmid was constructed wherein PvirK controls expression of an mNeonGreen (mNG) fluorescent reporter gene, which produces a fluorescent protein that is brighter than sfGFP. […] LL-37 response was also measured in two negative control strains: an S. Typhimurium strain lacking phoQ and a KB1 derivative in which the catalytic histidine of PhoQ was mutated to an alanine (KB1 PhoQ H277A).

For LL-37, the EC50 (S. Typhimurium PhoPQ [1]) was 2010 ± 430 nM and the EC50 (S. Typhimurium PhoPQ [2]) was 1160 ± 100 nM.
